Data taken from PMC7695835, “Pharmacological characterisation of novel adenosine A3 receptor antagonists” (Scientific Reports, 2020).

Amino acid sequences for entries named in this document (tags omitted). A change or cut given only in a name is not applied to a line headed by its entry.
UniProt P0DMS8, whole entry: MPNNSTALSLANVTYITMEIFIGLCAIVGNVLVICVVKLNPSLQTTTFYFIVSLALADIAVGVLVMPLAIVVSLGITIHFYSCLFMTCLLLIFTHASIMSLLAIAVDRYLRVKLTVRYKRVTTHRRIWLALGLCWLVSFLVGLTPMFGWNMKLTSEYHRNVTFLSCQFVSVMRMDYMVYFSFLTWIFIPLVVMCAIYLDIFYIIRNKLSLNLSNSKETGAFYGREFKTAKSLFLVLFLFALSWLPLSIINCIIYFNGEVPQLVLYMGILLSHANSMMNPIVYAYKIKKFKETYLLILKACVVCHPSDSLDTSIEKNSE
UniProt P28647, whole entry: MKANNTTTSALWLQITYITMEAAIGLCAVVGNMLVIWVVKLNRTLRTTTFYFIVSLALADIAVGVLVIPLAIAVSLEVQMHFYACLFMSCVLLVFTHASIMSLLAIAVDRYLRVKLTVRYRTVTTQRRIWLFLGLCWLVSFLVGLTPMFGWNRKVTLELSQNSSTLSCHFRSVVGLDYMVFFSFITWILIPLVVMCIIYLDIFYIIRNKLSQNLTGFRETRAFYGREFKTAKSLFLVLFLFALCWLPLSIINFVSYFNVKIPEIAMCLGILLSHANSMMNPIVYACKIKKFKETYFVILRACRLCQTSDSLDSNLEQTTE
UniProt P30542, whole entry: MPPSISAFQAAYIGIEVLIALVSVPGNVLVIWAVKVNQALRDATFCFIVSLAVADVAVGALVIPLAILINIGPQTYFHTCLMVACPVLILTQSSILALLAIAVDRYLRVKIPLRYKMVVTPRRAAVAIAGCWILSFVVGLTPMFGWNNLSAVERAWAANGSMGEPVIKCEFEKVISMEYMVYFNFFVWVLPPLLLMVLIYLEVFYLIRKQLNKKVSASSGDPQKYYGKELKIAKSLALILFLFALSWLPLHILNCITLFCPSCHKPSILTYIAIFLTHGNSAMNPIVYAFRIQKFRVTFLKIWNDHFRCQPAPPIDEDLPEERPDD

Columns and labels:
A3R [1] = target: T1, A3R (Homo sapiens, UniProt P0DMS8); experiment: NECA stimulated cAMP inhibition in A3R Flp-In CHO cells; assay type: cell-based; conditions: for effect on NECA potency / antagonism: 1 μM compound; for effect on NECA potency / antagonism / effect on NECA potency: preliminary data; for True Basal: 10 µM compound + 10 µM forskolin only; for Span: 10 µM compound, difference between Emin and basal; for effect on NECA potency: 10 μM compound; for antagonistic potency: functional, Supplementary Fig. 3; for AR subtype selectivity: 10 μM antagonist, NECA curves at A3R, A1R, A2AR, A2BR
A2AR [2] = target: T2, A2AR (Homo sapiens, UniProt P29274); conditions: read-out: Radioligand binding Ki A2AR; 10 nM [3H]NECA; ref Lagarias et al.[19]; cited from earlier work
A3R [3] = target: T1, A3R; experiment: Radioligand binding at A3R ([3H]HEMADO, CHO cell membranes); conditions: from Table 1
WT A3R = WT A3R (Homo sapiens, UniProt P0DMS8); experiment: IB-MECA stimulated cAMP inhibition at WT A3R Flp-In-CHO, with Schild analysis; assay type: cell-based; conditions: for True Basal: 10 µM compound + 10 µM forskolin only; for Span: 10 µM compound, difference between Emin and basal; for mode of antagonism at the A3R by Schild analysis: Schild slope not significantly different from unity
rat A3R = rat A3R (Rattus norvegicus, UniProt P28647); experiment: NanoBRET ligand-binding, Nluc-rat A3R HEK 293 cells, AV039 tracer; conditions: 100 nM AV039, BRET ratio at 5 minutes, Cheng-Prusoff
A3R [4] = target: T1, A3R; experiment: Inverse agonism at the A3R (cAMP, forskolin + antagonist only); assay type: cell-based; conditions: 10 μM forskolin + increasing concentrations of compound, WT A3R Flp-In-CHO, 3 experiments
A2AR [5] = target: T2, A2AR; experiment: NECA stimulated cAMP accumulation in CHO-K1 cells expressing A2AR; assay type: cell-based; conditions: 10 μM antagonist
A1R [6] = target: T3, A1R (Homo sapiens, UniProt P30542); experiment: Inverse agonism at the A1R (cAMP, forskolin + antagonist only); conditions: for Inverse agonism pEC50: A1R CHO-K1, 5 μM forskolin + increasing concentrations of compound
A1R [7] = target: T3, A1R; assay type: cell-based; conditions: for Basal: upper plateau
[8] = 0.1 µM compound + forskolin only
[9] = 10 µM compound + forskolin only

Structure (SMILES) | effect on NECA potency / antagonism (A3R [1]) | True Basal (A3R [1]) | Span (A3R [1]) | effect on NECA potency (A3R [1]) | Ki (A2AR [2]) [µM] | True Basal (WT A3R) | Span (WT A3R) | mode of antagonism at the A3R by Schild analysis (WT A3R) | pKi (rat A3R) | Inverse agonism pEC50 (A3R [4]) | AR subtype selectivity (A3R [1]) | also measured
NC(=NOC(=O)c1ccccc1-c1ccccc1)c1ccc(Br)cc1 | no effect | 143.0 ±5.9 | 117.3 ±6.6 | reduce the NECA potency |  |  |  |  |  |  |  | antagonistic potency (A3R [1]): > 1 µM
Nc1nc(-c2ccncc2)ncc1S(=O)(=O)Cc1ccco1 |  |  |  |  | > 100 |  |  |  |  |  |  | 
NC(=O)c1sc(-c2ccc(Cl)cc2)cc1NC(=O)CSc1cc(C(F)(F)F)cc(C(F)(F)F)c1 |  | 148.5 ±5.4 | 136.5 ±2.5 |  | > 100 | 131 ··· | 119.1 ± 3.5 | competitive antagonists | 6.37 ± 0.06 | 6.01 ± 0.1 | A3R selective antagonists | pKi human A3R (A3R [3]): 5.81
COc1ccc(C(N)=NOC(=O)c2ccccc2-c2ccccc2)cc1OC | no effect | 133.2 ±3.0 | 101.4 ±6.2 | reduce the NECA potency |  |  |  |  |  |  |  | 
CCOC(=O)c1cn(C(=O)CCSc2ccc(OC)cc2)nc1N |  |  |  |  | > 100 |  |  |  |  |  |  | 
NC(=NOC(=O)c1ccccc1-c1ccccc1)c1ccc(Cl)cc1 | no effect | 143.6 ±7.6 | 108.7 ±7.8 | reduce the NECA potency |  |  |  |  |  |  |  | antagonistic potency (A3R [1]): > 1 µM
NC(=O)c1sc(-c2ccccc2)cc1NC(=O)c1ccccc1 |  | 143.1 ±1.3 | 106.8 ±5.5 |  | 7.29 | 128 ·· | 115.7 ±8.2 | competitive antagonists | 5.71 ± 0.03 | 6.96 ±0.2 | antagonists at both the A1R and A3R | antagonism at the A2AR (A2AR [5]): weak antagonism; inverse agonism at the A1R (A1R [6]): inverse agonists; Inverse agonism pEC50 (A1R [6]): 7.08 ±0.2; mode of antagonism at the A1R by Schild analysis (A1R [7]): competitive antagonists; Emin (A1R [7]; 0.1 µM compound): -5.3 ±9.3 % forskolin response; Span (A1R [7]; 0.1 µM compound): 135.4 ±6.7; True Basal (A1R [7]; [8]): 110.9 ±4.4; Basal (A1R [7]; 0.1 µM compound): 130.1 ±2.6; Emin (A1R [7]; 1 µM compound): -3.7 ±3.8 % forskolin response; Span (A1R [7]; 1 µM compound): 98.6 ±5.6; True Basal (A1R [7]; 1 µM compound + forskolin only): 113.6 ±18.1; Basal (A1R [7]; 1 µM compound): 106.6 ±8.5; Emin (A1R [7]; 10 µM compound): 8.1 ±2.0 % forskolin response; Span (A1R [7]; 10 µM compound): 154 ···; True Basal (A1R [7]; [9]): 141 ·; Basal (A1R [7]; 10 µM compound): 137 ··
NC(=O)c1sc(-c2ccsc2)cc1NC(=O)/C=C/c1ccsc1 |  | 129.3 ±4.9 | 109.2 ±7.3 |  | 4.69 | 142 ···· | 125.1 ±4.9 | competitive antagonists | 5.93 ± 0.04 | 5.83 ±0.2 | antagonists at both the A1R and A3R | antagonism at the A2AR (A2AR [5]): weak antagonism; inverse agonism at the A1R (A1R [6]): inverse agonists; Inverse agonism pEC50 (A1R [6]): 6.99 ±0.2; mode of antagonism at the A1R by Schild analysis (A1R [7]): competitive antagonists; Emin (A1R [7]; 0.1 µM compound): 3.3 ±5.6 % forskolin response; Span (A1R [7]; 0.1 µM compound): 128.3 ±7.2; True Basal (A1R [7]; [8]): 117.6 ±3.2; Basal (A1R [7]; 0.1 µM compound): 131.6 ±5.1; Emin (A1R [7]; 1 µM compound): 0.1 ±6.3 % forskolin response; Span (A1R [7]; 1 µM compound): 150 ·; True Basal (A1R [7]; 1 µM compound + forskolin only): 120 ·; Basal (A1R [7]; 1 µM compound): 133 ·; Emin (A1R [7]; 10 µM compound): 12.2 ±4.7 % forskolin response; Span (A1R [7]; 10 µM compound): 166 ··; True Basal (A1R [7]; [9]): 170 ····; Basal (A1R [7]; 10 µM compound): 178 ····

Where two headings read alike, the source gives them in different places.
